A short description of the assay: acute administration: wet mash intake, food intake and body weight in lean male C57BL/6J mice. The assay is classed as in vivo. The settings on record: dosed alone per the protocol; not as much of a reduction as the combinations with bupropion. As to the method:
The goal of this study was to investigate the effects of various ratios of bupropion:(R)-norfluoxetine on body weight and food and water intake in male C57BL/6J mice habituated to the daily presentation of a palatable wet mash diet. Rimonabant was used as a reference compound. Animals were maintained on normal-phase lighting. Test compounds were administered orally and measurements were made over the following 24 hours. All experiments included appropriate vehicle-treated control groups.
Sixty-two male C57BL/6J mice (weight range 20-25 g) were ordered from Harlan UK, Bicester, UK. The mice were individually housed in polypropylene cages at a temperature of 21±4° C. and 55%±20% humidity. […]
Typically an acute study was run each week with each study containing 60 animals. […] Animals were weighed and 2 h wet mash intake was calculated (to the nearest 0.1 g). […]
Drug administration occurred 60 minutes before the presentation of ‘wet mash’ which was at approximately 09:30 am. […] The mash was replaced with a fresh quantity of wet mash at the 4 hour time point. […] Wet mash was replaced with a known quantity of standard pellets at the 6 hour time point. […] Food and water intakes of the different groups of animals were measured concurrently. The animals were monitored at each reading and any overt drug-induced behavioural effects were recorded. […]

As for `NCC[C@@H](Oc1ccc(C(F)(F)F)cc1)c1ccccc1.O=C(O)C(O)C(O)C(=O)O` [(R)-Norfluoxetine (D)-tartrate], the weight gain entry was “reduction” and the wet mash intake result is listed as “reduction”.

These data come from patent US20080027087A1 (AMPLA Pharmaceuticals, Inc., priority 2006, published 2008).
